# Experimental data: patent US6100236A, “Method and composition for treating thrombosis” (La Jolla Cancer Research Foundation, priority 1995, dated 2000)
# Assay: Template bleeding, clotting times and hematology in baboons
# Assay type: in vivo, baboon
# Details: animal 1; blood taken immediately after completion of second shunt
# Experimental: Twenty-four hours before the ex vivo shunt was established, platelets were isolated from 500 ml of blood from the test animal and labelled with ca. 500 microcuries of indium-111 oxine (Medi+Physics, Emeryville, Calif.), which irreversibly and specifically binds to platelets with an efficiency of 50%. Immediately after labelling, these platelets were then injected back into the animal and allowed to circulate for 24 hours. Immediately before the start of the study, fibrinogen that had been isolated from the animal and labelled with iodine-131 (DuPont Nuclear, Boston, Mass.) was also injected back into the animal. Also at this time, baseline determinations of the clotting and template bleeding times were made, and blood samples were drawn for hematology studies.
# At one- and two-hour time points, template bleeding times were measured, and blood samples were drawn to assess the hematology aggregation studies. Platelet aggregation studies were performed as described in Example V using ADP as the stimulus.
# After a second, identical shunt was attached to the animal, the anti-platelet peptide GPen[…] was administered as an intravenous (IV) injection. A second series of scans was then obtained to ascertain the effect of the peptide on the platelet uptake pattern of the graft. […]
substance,measurement,value
GPenGHRGDLRCA,Reduction of platelet count,14%
same,Reduction of white blood cell count,37%
